Structures are written as SMILES. The entries are a selection whose mix differs from that of the whole data set. The source made the active and inactive calls.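 The calls were made as follows: active = mean inhibition across replicates of 30% or more, whatever share of single replicates reach that level; inconclusive = mean inhibition below 30% while every single replicate reaches 30%; inactive = the rest.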

Protein sequences, listed by entry. Tags and fused reporters are not part of them. Lines headed by an entry give the natural chain unless they say otherwise; changes in a name come on top.
UniProt P07237: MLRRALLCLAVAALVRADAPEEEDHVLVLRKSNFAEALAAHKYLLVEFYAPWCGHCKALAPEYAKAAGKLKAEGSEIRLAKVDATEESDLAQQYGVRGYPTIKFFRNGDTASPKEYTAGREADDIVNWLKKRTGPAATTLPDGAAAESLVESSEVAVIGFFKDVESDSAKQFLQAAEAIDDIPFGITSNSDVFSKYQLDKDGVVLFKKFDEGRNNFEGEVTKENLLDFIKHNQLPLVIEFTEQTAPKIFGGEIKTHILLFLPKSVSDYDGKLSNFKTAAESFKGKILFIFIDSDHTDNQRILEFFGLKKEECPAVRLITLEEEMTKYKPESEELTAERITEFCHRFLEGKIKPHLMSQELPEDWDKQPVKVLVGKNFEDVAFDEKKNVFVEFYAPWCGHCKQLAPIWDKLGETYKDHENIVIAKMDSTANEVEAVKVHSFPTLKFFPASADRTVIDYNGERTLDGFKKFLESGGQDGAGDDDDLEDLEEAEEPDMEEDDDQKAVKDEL

The test deals with Protein disulfide-isomerase (Homo sapiens) (UniProt P07237). Kind of test: inhibitors of human PDI, primary screen, biochemical, turbidity, single point, plate reader (AID 588391).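 Also: absorbance from insulin aggregation driven by PDI reduction with DTT.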 The conditions noted are these: PDI insulin aggregation turbidity, A650, 90 min; at 10 µM; hits give high values.
Consider `O=P1(Nc2nc3ccc(Cl)cc3s2)COc2ccccc2O1` (stereo unspecified), for which the inhibition was inactive: -2.77%.

In the case of `CCOc1ccc(C2=NCC(CBr)S2)cc1` (stereo unspecified), the inhibition was inactive: -2.3%.

For the compound `CC(C)(C)C(=O)NC(Sc1ccccc1)C(Cl)(Cl)Cl` (stereo unspecified), the inhibition was inactive: 0.519%.

In the case of `CCc1cc(O)c([N+](=O)[O-])c(C)c1[N+](=O)[O-]`, the inhibition is inactive: -6.04%.

As to `Cc1ccccc1CN(C)C(=O)COC(=O)C(O)(c1ccccc1)c1ccccc1`, the inhibition was inactive: -6.45%.

Turning to `C[C@@H]1C=CCP(=O)(Oc2ccccc2)O1` (stereo partly specified), the inhibition was inactive: -2.89%.

Turning to `C[C@H]1OP(=O)(Oc2ccccc2)C[C@@H]2O[C@@H]21` (stereo partly specified), the inhibition is inactive: -2.46%.

As to `N#C/C(=C\c1ccc(N(CCBr)CCBr)cc1)C(N)=O`, the inhibition is inactive: 5.82%.

`CC(=O)c1ccc(N2CC2c2ccncc2)cc1` (stereo unspecified): the inhibition was inactive: -6.83%.

As to `COC(=O)C1(C)COP(=O)(NCc2ccccc2)OC1` (stereo unspecified), the inhibition is inactive: -0.408%.

With `CC(=O)Nc1ccc([As](=O)(O)O)c(O)c1`, the inhibition was inactive: 10.1%.

In the case of `CC(=O)Nc1ccc(Oc2c([N+](=O)[O-])cc([N+](=O)[O-])cc2[N+](=O)[O-])cc1`, the inhibition is inactive: 6.93%.

Regarding `c1ccc(-c2nn[nH]n2)c(-c2nn[nH]n2)c1`, the inhibition is inactive: 5.07%.

`Cc1ccc(NP(=O)(Oc2cccc(C)c2)Oc2cccc(C)c2)nc1`: the inhibition was inactive: 10.7%.

Turning to `O=C(NC1CCS(=O)(=O)C1)NP(=S)(Oc1ccccc1)Oc1ccccc1` (stereo unspecified), the inhibition is inactive: 3.21%.

As for `CCNC(=S)/N=C(\N)N[N+](=O)[O-]`, the inhibition was inactive: -0.221%.

Take `O=P1(N(CCCl)CCCl)OCCC2CCCCN21` (stereo unspecified): the inhibition is inactive: -2.36%.

As for `O=C(OC1CN2CCC1CC2)c1ccccc1` (stereo unspecified), the inhibition is inactive: -3.5%.

As for `CCC(=O)N1C2C3N(C(=O)CC)C1C1N(C(=O)CC)C(C(N1C(=O)CC)N3C(=O)CC)N2C(=O)CC`, the inhibition is inactive: 0.891%.

Regarding `COC(=O)c1cc2c(s1)N=C(c1ccccc1)N(C)P2(=O)N1CCOCC1` (stereo unspecified), the inhibition was inactive: 0.049%.

Take `CC(=O)NC(SC(=S)N(CC(C)C)CC(C)C)C(Cl)(Cl)Cl` (stereo unspecified): the inhibition was inactive: -3.61%.

Turning to `Cc1ccc(OP(=O)(Nc2ccccn2)Oc2ccc(C)cc2)cc1`, the inhibition is inactive: -1.94%.

Consider `Cc1ccccc1OP(=O)(Nc1ccccn1)Oc1ccccc1C`, for which the inhibition is inactive: -6.26%.

`CC(NC(=O)COC(=O)C(O)(c1ccccc1)c1ccccc1)c1ccccc1` (stereo unspecified): the inhibition is inactive: -0.209%.

In the case of `CN(C)C(=O)Oc1noc2ccccc12`, the inhibition is inactive: 4.03%.

With `O=c1c2cc([N+](=O)[O-])ccc2[nH]c2c([N+](=O)[O-])cc([N+](=O)[O-])cc12`, the inhibition is inactive: 17.5%.

Consider `CN(C)C1(CNC(=O)c2ccc(Cl)c(S(N)(=O)=O)c2)CCCCC1`, for which the inhibition was inactive: 1.46%.

`O=P(Nc1ccccn1)(c1ccc(Br)cc1)c1ccc(Br)cc1`: the inhibition was inactive: -6.03%.

As for `COc1ccc(N)c([N+](=O)[O-])c1[N+](=O)[O-]`, the inhibition was inactive: -4.24%.

Take `O=P(Nc1nc2ccccc2s1)(c1ccccc1)c1ccccc1`: the inhibition is inactive: -0.197%.

On to `C[C@H]1OP(=O)(Oc2ccccc2)[C@H](O)[C@H](O)[C@H]1N=[N+]=[N-]` (stereo partly specified), for which the inhibition is inactive: -0.386%.

For `O=[As](O)(c1ccccc1)c1ccc(O)cc1`, the inhibition is inactive: 2.48%.

Take `CC(=O)NC(SC(=S)N(C)C)C(Cl)(Cl)Cl` (stereo unspecified): the inhibition is inactive: 0.0515%.

In the case of `O=[N+]([O-])c1ncn(CCn2cnc([N+](=O)[O-])n2)n1`, the inhibition was inactive: -8.8%.

Regarding `O=[N+]([O-])c1ccc(O)c(/C=N/Nc2ccc([N+](=O)[O-])cc2[N+](=O)[O-])c1`, the inhibition is inactive: -5.98%.

`O=C(OC1CN2CCC1CC2)c1cccc(Cl)c1` (stereo unspecified): the inhibition was inactive: 10.6%.

On to `Nc1ccc([As](=O)(O)c2ccc([N+](=O)[O-])cc2)cc1`, for which the inhibition is inactive: 0.923%.

Take `C(Cc1nn[nH]n1)Cc1nn[nH]n1`: the inhibition is inactive: 15.7%.

On to `O=P(Nc1nccs1)(c1ccccc1)c1ccccc1`, for which the inhibition was inactive: 2.26%.

For `CC(C)C(=O)NC(Sc1ccccc1)C(Cl)(Cl)Cl` (stereo unspecified), the inhibition is inactive: 1.69%.

As for `c1nnnn1CCn1cnnn1`, the inhibition was inactive: -0.601%.

As for `COc1ccc(C2=NCC(CBr)S2)cc1` (stereo unspecified), the inhibition was inactive: 14.3%.

With `Cc1ccc(NP(=O)(Oc2ccccc2)Oc2ccccc2)nc1`, the inhibition was inactive: 9.42%.

Consider `O=[N+]([O-])c1cc([N+](=O)[O-])c(CCNc2ccccc2)c([N+](=O)[O-])c1`, for which the inhibition was inactive: -2.09%.

On to `CCc1nc2c(n1)c1c(non1O)c1c2no[n+]1[O-]`, for which the inhibition is inactive: 2.56%.

In the case of `CC(=O)N1C2C3N(C(C)=O)C1C1N(C(C)=O)C(C(N1C(C)=O)N3C(C)=O)N2C(C)=O`, the inhibition is inactive: -0.467%.

Consider `O=[N+]([O-])c1cccc2n[nH]nc12`, for which the inhibition is inactive: 3.56%.

For `CCN(/C(=N/P(=O)(N1CCOCC1)N1CCOCC1)N1CCOCC1)c1ccc(OC)cc1`, the inhibition is inactive: -0.431%.

For the compound `Nc1ccc([As](=O)(O)c2ccc(N)cc2)cc1`, the inhibition was inactive: 20.6%.

For the compound `C[N+]1=C2C=CC=CC=C2SC12C([N+](=O)[O-])=CC([N+](=O)[O-])=C[C-]2[N+](=O)[O-]` (stereo unspecified), the inhibition is inactive: -5.45%.

Regarding `c1cc(-c2nn[nH]n2)ccc1-c1nn[nH]n1`, the inhibition is inactive: 1.39%.

For the compound `CC1CCN(C(=O)Oc2c(Cl)cc(Cl)c3cccnc23)CC1`, the inhibition is inactive: 4.17%.

`CC(C)=N/N=C(\N)N[N+](=O)[O-]`: the inhibition is inactive: 4%.

For the compound `CC(C)c1nc(Nc2ccccc2)n(P(=O)(N(C)C)N(C)C)n1`, the inhibition was inactive: -3.48%.

Regarding `CN(C)C(=O)OCCc1n(C)cc[n+]1C`, the inhibition was inactive: 20.2%.

Turning to `O=P1(N(CCCl)CCCl)OCCCS1` (stereo unspecified), the inhibition was inactive: 11.4%.

As to `O=C(Nc1cc([As](=O)(O)O)ccc1O)c1ccccc1`, the inhibition is inactive: 11.4%.

Regarding `O=[N+]([O-])c1ncn(CCn2ncnc2[N+](=O)[O-])n1`, the inhibition was inactive: -0.917%.

Consider `CC(C)(C)C(=O)NC(Sc1ccncn1)C(Cl)(Cl)Cl` (stereo unspecified), for which the inhibition is inactive: 0.038%.

For the compound `O=C(O)CNc1ccc([As](=O)(O)O)cc1`, the inhibition is inactive: -4.55%.

Turning to `O=[N+]([O-])c1cccc(NC2=NCC(CBr)S2)c1` (stereo unspecified), the inhibition is inactive: 4.84%.

For the compound `COC(=O)C1(C)COP(=O)(Nc2ccccc2)OC1` (stereo unspecified), the inhibition is inactive: 2.26%.

In the case of `CN(C)P(=O)(N(C)C)n1c(Nc2ccccc2)nnc1-c1ccccc1`, the inhibition is inactive: -0.503%.

`O=P(Nc1nc2ccc(Cl)cc2s1)(c1ccccc1)c1ccccc1`: the inhibition was inactive: -8.59%.

For the compound `O=C(O)c1ccccc1[As](=O)(O)O`, the inhibition is inactive: 16.2%.

Consider `CC(=O)Nc1ccc([As](=O)(O)O)cc1`, for which the inhibition is inactive: -2.62%.

On to `CCCC1OP(N)(=O)OCC1CC` (stereo unspecified), for which the inhibition was inactive: 12%.

Consider `CCOP(=O)(Nc1ccccc1)OCC`, for which the inhibition is inactive: 5.43%.

As to `Cc1cc(SC(NC(=O)c2ccc(F)cc2)C(Cl)(Cl)Cl)ncn1` (stereo unspecified), the inhibition was inactive: -8.86%.

For the compound `CN(C(=O)Cc1ccc(Cl)c(Cl)c1)[C@H]1CCCC[C@@H]1N1CCCC1`, the inhibition is inactive: 0.792%.

As for `Cc1ccc(NP(=O)(Oc2ccccc2F)Oc2ccccc2F)nc1`, the inhibition is inactive: -1.96%.

With `Nc1cccc2ccc([As](=O)(O)O)cc12`, the inhibition is inactive: 2.74%.

As to `CCN(N=Nc1nonc1N)c1nonc1N`, the inhibition is inactive: -11.8%.

Turning to `CN(C(=O)Cc1ccc(Cl)c(Cl)c1)[C@H]1CCCC[C@H]1N1CCCC1`, the inhibition is inactive: -1.84%.

Consider `Cc1ccc(N/C(=N/P(=O)(N2CCOCC2)N2CCOCC2)N2CCOCC2)cc1`, for which the inhibition is inactive: -1.22%.

As to `NC(=O)c1cc([N+](=O)[O-])cc([N+](=O)[O-])c1N`, the inhibition was inactive: 5.46%.

On to `Clc1ccc(Cl)c(NC2=NCC(CBr)S2)c1` (stereo unspecified), for which the inhibition is inactive: 5.28%.

For the compound `CN1CCCC(OC(=O)C(c2ccccc2)c2ccccc2)C1` (stereo unspecified), the inhibition is inactive: 2.08%.

For `COc1ccccc1OP(=O)(Nc1ccc(C)cn1)Oc1ccccc1OC`, the inhibition is inactive: 5.9%.

Turning to `Cc1ccc(OP(=O)(Nc2nccs2)Oc2ccc(C)cc2)cc1`, the inhibition is inactive: -2.9%.

Take `Oc1ccccc1CNc1ccccn1`: the inhibition was inactive: -1.27%.

In the case of `O=C(NC(Sc1ccncn1)C(Cl)(Cl)Cl)c1ccccc1` (stereo unspecified), the inhibition was inactive: 5.62%.

`CC(C)CC(=O)NC(Sc1ccc(Cl)cc1)C(Cl)(Cl)Cl` (stereo unspecified): the inhibition was inactive: 6%.

As to `Nc1cc(N)c2nonc2c1[N+](=O)[O-]`, the inhibition is inactive: 3.67%.

For the compound `Cc1c2c(nc3ccccc13)SC(C(Cl)Cl)C2` (stereo unspecified), the inhibition is inactive: 9.61%.

On to `O=C(OC1CN2CCC1CC2)C12CC3CC(CC(C3)C1)C2` (stereo unspecified), for which the inhibition was inactive: 4.42%.

`Cc1cc(=O)[nH]c(N[N+](=O)[O-])n1`: the inhibition was inactive: -24.6%.

For `O=P1(N(CCCl)CCCl)Nc2ccccc2N1`, the inhibition was inactive: 13.4%.

As to `O=P1(N(CCCl)CCCl)OCCCN1CCCl` (stereo unspecified), the inhibition was inactive: -4.37%.

In the case of `COc1ccc2nc(NP(=O)(c3ccccc3)c3ccccc3)sc2c1`, the inhibition was inactive: 2.44%.

Consider `COc1cc(I)ccc1[As](=O)(O)O`, for which the inhibition is inactive: 4.43%.

As for `O=[N+]([O-])c1cc(Oc2ccc([N+](=O)[O-])cc2C(F)(F)F)cc([N+](=O)[O-])c1`, the inhibition was inactive: -9.16%.

Consider `COc1ccc(N/C(=N/P(=O)(N2CCOCC2)N2CCOCC2)N2CCOCC2)cc1`, for which the inhibition is inactive: -2.32%.

Consider `O=[As](O)(c1ccc(O)cc1)c1ccccc1O`, for which the inhibition is inactive: 10.3%.

For the compound `C[As](=O)(O)c1cccc(C(=O)O)c1`, the inhibition is inactive: 8.37%.

Regarding `COc1cc(C(=O)NCC2(N3CCOCC3)CCCCC2)ccc1OCC(C)C`, the inhibition is inactive: -16.3%.

In the case of `O=[N+]([O-])c1ccc(-c2cc([N+](=O)[O-])c(O)c([N+](=O)[O-])c2)cc1`, the inhibition is inactive: -5.5%.

For `Cc1ccc(OP(=O)(Nc2ccc([N+](=O)[O-])cn2)Oc2ccc(C)cc2)cc1`, the inhibition was inactive: -3.59%.

For the compound `Cc1ccc2nc3c(c(C)c2c1)CC(C(Cl)Cl)S3` (stereo unspecified), the inhibition was inactive: 1.85%.

For the compound `ClCCSc1nnc(-c2cccnc2)o1`, the inhibition is inactive: 3.13%.

For `CC(C)c1ccc(OP(=O)(Nc2ccccn2)Oc2ccccc2F)cc1` (stereo unspecified), the inhibition is inactive: 13.2%.

What is called inhibition is the change of the read-out against control, counted positive when it falls.

Source of the values: PubChem BioAssay AID588391 (Broad Institute, 2011).
